Screening results as filed in PubChem.
In the library only some 4.2% were active in any assay of this set; here they are far more common.
HDAC3 inhib: HDAC3 deacetylase inhibitors, primary screen, biochemical, fluorescence, cell-free homogeneous; Histone deacetylase 3 (Homo sapiens), O15379; recombinant HDAC3, fluorogenic peptide/trypsin coupled; inhibition, % at 8.3 µM; 0.15% of 320,000 active; in the data active = inhibition above about 26%, passing the limit was not always enough
MC4R ag barr: MC4R agonists recruiting beta-arrestin, primary screen, cell-based, luminescence, agonist arm of biased-ligand search; AID 540308, 2011; Melanocortin receptor 4 (Homo sapiens), P32245; activation, % at 8.9 µM; U2OS MC4R beta-arrestin complementation; percent of melanotan II response, DMSO zero; 0.98% of 360,000 active;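 active = activation above a per-plate cutoff, the mean activation of sample wells on that plate plus 3 SD, cut at about 8% in these data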
MC4R antag cAMP: MC4R antagonists of cAMP signaling, primary screen, cell-based, TR-FRET, antagonist arm of biased-ligand search; Melanocortin receptor 4 (Homo sapiens), P32245; MC4R-expressing cells, MTII-stimulated cAMP, LANCE TR-FRET; 0.48% of 360,000 active; inhibition, % at 6.5 µM;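 active = inhibition above its plate's cutoff, the mean of tested wells on that plate plus 3 SD, cut at about 29% in these data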
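System: U2OS-MC4R stable cell line; Technique: Eu-cAMP/anti-cAMP TR-FRET, emission 671 nm; Repeats: single well per compound; Also added: Melanotan II; Dosing: one concentration, 6.5 µM nominal; Schedule: 30-min compound, 1-h challenge, 1-h detection, room temperature.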
NALP1 inh: NALP1 inflammasome inhibitors in reconstituted yeast, colorimetric, S. cerevisiae, triplicate retest; 0.61% of 280,000 active; S. cerevisiae NALP1/ASC/caspase-1 growth, X-gal OD620, 72 h; inhibition, % at 10 µM; AID 2071, 2009; in the data active = inhibition mostly above about 24%, no sharp cut-off; inactive = mostly below about 32%
ALR H2O2 inh: blocks human ALR sulfhydryl oxidase activity; inhibition, % (no concentration beside the values); hit rate 3.8% among 290,000; purified ALR, DTT oxidation, H2O2 HRP-luminol luminescence; AID 485317; P55789;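 active = mean and each replicate at 75% or more; inconclusive = only one of the two met; inactive = neither met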;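 note: stock transfer was 7.5 nL into about 7.5 µL; 0% = neutral wells and 100% = wells with inactivated enzyme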
UUG fidelity: alters start codon recognition fidelity in yeast | S. cerevisiae UUG-firefly luciferase reporter, luminescence/redox ratio | activity score, % at 18.7 µM | 350,000 compounds, 0.13% hits | AID 602363;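 active = replicate mean at a twofold rise or more, about +100% in these data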;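 note: firefly luciferase made from a UUG start codon reports start codon fidelity; reporter light over untreated wells divided by growth signal over untreated wells; some hits fall short of that in this replicate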
Each line names hits and unclear results; the compound was inactive in the other large screens.

Protein sequences, listed by entry. Tags and fused reporters are not part of them.
Melanocortin receptor 4 (Homo sapiens), P32245, UniProt P32245, whole entry, looked up: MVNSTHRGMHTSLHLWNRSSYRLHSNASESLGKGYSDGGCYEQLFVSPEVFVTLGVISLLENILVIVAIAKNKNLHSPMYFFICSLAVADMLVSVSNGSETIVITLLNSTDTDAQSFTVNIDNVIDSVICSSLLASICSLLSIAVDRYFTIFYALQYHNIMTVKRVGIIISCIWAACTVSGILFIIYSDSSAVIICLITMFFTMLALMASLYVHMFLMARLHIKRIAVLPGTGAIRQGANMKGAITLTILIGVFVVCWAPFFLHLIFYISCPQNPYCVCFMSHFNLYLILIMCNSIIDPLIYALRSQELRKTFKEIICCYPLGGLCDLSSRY

COc1ccc(-c2cn[nH]c2N)cc1OC	ALR H2O2 inh 99
COc1cc(OC)cc(-c2cn[nH]c2N)c1	ALR H2O2 inh 99 (no result: UUG fidelity)
COc1ccc(-c2cnn(-c3ccccc3)c2N)cc1OC	ALR H2O2 inh 90
C/C=C/c1cnc2c(c1)C(=O)N([C@@H](C)CO)C[C@@H](C)[C@H](CN(C)C(=O)c1cccc(F)c1)O2	none (no result: HDAC3 inhib, MC4R ag barr, MC4R antag cAMP, NALP1 inh, ALR H2O2 inh)
N#C/C(=C\c1c[nH]c2ccccc12)C(=O)NC1CCCC1	ALR H2O2 inh 96
Fc1ccc(-n2c(-c3ccc4c(c3)OCO4)n[nH]c2=S)cc1Cl	ALR H2O2 inh 96 (no result: UUG fidelity)
Cc1ccc(C)c(-n2c(-c3ccc4c(c3)OCO4)n[nH]c2=S)c1	ALR H2O2 inh 83
COC1=C(NCc2ccc3c(c2)OCO3)C(=O)C(OC)=C(NCc2ccc3c(c2)OCO3)C1=O	none (no result: HDAC3 inhib, NALP1 inh, ALR H2O2 inh, UUG fidelity)
COc1cccc2sc3ccc(NCc4ccc5c(c4)OCO5)cc3c(=O)c12	ALR H2O2 inh 92
CCCN1C[C@@H](C)[C@@H](OC)CN(C)C(=O)c2ccc(NC(=O)c3cccc(OC)c3)cc2OC[C@H]1C	none (no result: HDAC3 inhib, MC4R ag barr, MC4R antag cAMP, NALP1 inh, ALR H2O2 inh)
O=C(CCN1c2ccccc2Sc2ccccc21)OCC(=O)N1CCN(C(=O)c2ccco2)CC1	ALR H2O2 inh 91
O=C(CSc1ccccc1)OCC(=O)N1CCN(C(=O)c2ccco2)CC1	none (no result: NALP1 inh, UUG fidelity)
Cc1ccc(O)c(NC(=O)C2CCCN2C(=O)OCc2ccccc2)c1 (stereo not given)	ALR H2O2 inh 87
Cc1cccc(NC(=O)C2CCCN2C(=O)OCc2ccccc2)c1 (stereo not given)	none (no result: NALP1 inh)
Cc1cc(N)ccc1-c1cc2ccccc2oc1=O	ALR H2O2 inh 99
O=c1oc2ccccc2cc1NCc1ccccc1O	ALR H2O2 inh 96
COc1ccc(-c2cc3ccc(O)cc3oc2=O)cc1OC	ALR H2O2 inh 99
Nc1ccc(-c2cc3ccccc3oc2=O)cc1	none
O=c1oc2ccccc2cc1-c1ccc(O)cc1	ALR H2O2 inh 95 (no result: UUG fidelity)
COc1cc(N)ccc1-c1cc2ccccc2oc1=O	none
C[C@H](O)C#Cc1ccc([C@H]2[C@@H](CO)N3CCCCN(CC4CCOCC4)C[C@@H]23)cc1	none (no result: HDAC3 inhib, MC4R ag barr, MC4R antag cAMP, NALP1 inh, ALR H2O2 inh)
C[C@H]1CN([C@@H](C)CO)C(=O)c2cccc(NC(=O)C3CCCCC3)c2O[C@H]1CN(C)S(=O)(=O)c1ccc(F)cc1	none (no result: HDAC3 inhib, MC4R ag barr, MC4R antag cAMP, NALP1 inh, ALR H2O2 inh)
Nc1ccc2oc(=O)c(-c3ccccc3)cc2c1	ALR H2O2 inh 98 (no result: HDAC3 inhib)
